Screening results (PubChem BioAssay)
Compounds with a hit are over-represented: about 1.2% of the library has one in this group of screens.
Rce1 inh = yeast Ras-converting enzyme inhibition. hit rate 0.27% among 290,000. Q03530. calls only. yeast membranes, quenched prenylated peptide cleavage fluorescence;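 active = fall in fluorescence gain of 50% or more versus controls, with final raw signal at or below 3038400; inconclusive = same 50% fall but final raw signal above 3038400; inactive = fall in fluorescence gain under 50%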
Pemphigus Ab inh = blocks pemphigus antibody binding to human desmoglein-3. P32926. DSG3-coupled beads, scFv-anti-DSG3-GFP binding, flow cytometry; hits give low values. binding (percent of control), % at 10 µM. hit rate 0.48% among 310,000. AID 588358;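 active = binding more than 3 SD below its plate's average and above zero; inconclusive = below that plate limit but binding exactly zero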;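 also: hits lower antibody fragment binding to DSG3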
Yeast UUG start = yeast start codon fidelity modulation; actives 0.13% (n = 350,000); activity score, % at 18.7 µM; S. cerevisiae UUG-firefly luciferase reporter, luminescence/redox ratio;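 active = replicate mean at a twofold rise or more, about +100% in these data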;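 note: firefly luciferase made from a UUG start codon reports start codon fidelity; reporter light over untreated wells divided by growth signal over untreated wells; some hits fall short of that in this replicate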
Arrestin-AP2 inh = blocks beta-arrestin peptide binding to AP2 adaptin; FITC-arrestin peptide / GST-AP2 beads, flow cytometry; AP2 beta2 appendage carries R879A mutation; AID 504490; inhibition, % at 10 µM; hit rate 0.31% among 340,000;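 active = inhibition above a set limit, near 3 SD of compounds lacking own fluorescence, cut at about 54% in these data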
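System: GST-AP2 R879A glutathione beads | Also added: FITC-arrestin peptide, 50 nM | Times: 12 min plus 1 h, RT | Signal: Bead flow cytometry, FITC channel | Buffer or medium: PBS with 0.05% Tween 20 and 0.1% BSA | Read-out basis: Percent drop in bead-associated FITC signal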
TbMetRS inhib = blocks T. brucei methionyl-tRNA synthetase activity. inhibition, % at 11.9 µM. hit rate 0.4% among 360,000. purified T. brucei MetRS, ATP depletion, Kinase-Glo luminescence;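 active = inhibition above a per-plate cutoff of the control wells' mean inhibition plus 3 SD, cut at about 5.5% in these data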
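System: purified T. brucei MetRS enzyme / Detection: Kinase-Glo luciferase luminescence reporting remaining unconsumed ATP / Medium: HEPES buffer with MgCl2, KCl, DTT, spermine, BSA, pyrophosphatase / Replication: singlicate, one well per compound / Evaluation: percent inhibition relative to median high and low control wells / Schedule: 2 h aminoacylation at 25 °C after 15 min preincubation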
Arr-AP2 CP1 = inhibitors of human beta-arrestin and AP2 interaction; shares compounds with Arrestin-AP2 inh; GST-AP2 beads, FITC arrestin peptide binding, flow cytometry; GST-fused beta2-adaptin appendage, R879A mutant; inhibition, % at 10 µM; hit rate 2% among 1,300; AID 504908;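 active = inhibition above a set limit, roughly 3 SD of non-fluorescent compound noise, cut at about 38% in these data; inactive = inhibition at or below that limit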;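 also: loss of bead fluorescence from 50 nM FITC arrestin peptide bound to appendage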
GST-FITC bead = counter-screen for beta-arrestin AP2 inhibitors: GST-GSH bead binding; shares compounds with Arrestin-AP2 inh; hit rate 2% among 1,300; GST-fluorescein binding to GSH beads, fluorescence; inhibition, % at 10 µM;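 active = inhibition above 50%, about 3 SD of the inhibition seen with non-fluorescent compounds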;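 also: fluorescein maleimide labelled GST captured on 4 micron glutathione beads; higher means more loss of bead fluorescence from quenching or blocked binding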
A number is an active result; i = inactive; ? = inconclusive; nt = not tested or not shown.

SMILES	Rce1 inh	Pemphigus Ab inh	Yeast UUG start	Arrestin-AP2 inh	TbMetRS inhib	Arr-AP2 CP1	GST-FITC bead
O=C(/C=C/c1cccs1)Nc1cccnc1	i	i	nt	55.8	i	i	i
C[C@H]1CN([C@@H](C)CO)C(=O)c2cccc(NC(=O)c3nc4ccccc4s3)c2O[C@@H]1CN(C)S(=O)(=O)c1ccc(Cl)cc1	nt	nt	i	nt	nt	nt	nt
CCCNC(=O)C[C@@H]1CC[C@H]2[C@@H](COc3ccc(NC(=O)CCC)cc3C(=O)N2C)O1	nt	nt	i	nt	nt	nt	nt
CN(C)c1ccc(/C=N\Nc2nc(-c3ccccc3)cc(=O)[nH]2)cc1	i	i	nt	102.1	i	i	i
CCNC(=S)Nc1ccc(N2CCCCC2)cc1	i	i	nt	i	i	nt	nt
CCNC(=S)N/N=C/c1sc(N2CCCCC2)nc1-c1cccs1	i	i	nt	105.6	i	i	i
CN(C[C@H]1N[C@@H](CO)[C@H]1c1ccc(C2=CCCCC2)cc1)S(C)(=O)=O	nt	nt	i	nt	nt	nt	nt
O=C(CNS(=O)(=O)c1ccccc1)OCC(=O)c1c[nH]c2ccccc12	nt	?	i	75.7	i	i	i
Cc1ccc(S(=O)(=O)N2CCC(C(=O)N3CCC3)CC2)cc1	i	i	i	54.3	i	i	i
CCCNC(=O)[C@@H]1CCCN1C(=O)C1CCN(S(=O)(=O)c2ccc(C)cc2)CC1	i	i	i	54.4	i	i	i
CCOc1ccccc1NC(=O)Cn1c(=O)c2ccccc2n(CC)c1=O	i	i	i	i	i	i	i
CCn1c(=O)n(CC(=O)Nc2cc(OC)ccc2OC)c(=O)c2ccccc21	i	i	i	i	i	i	i
C[C@@H]1CN([C@H](C)CO)C(=O)Cc2cc(NC(=O)CCN3CCOCC3)ccc2O[C@H]1CN(C)S(=O)(=O)c1cccs1	nt	nt	i	nt	nt	nt	nt
CCN(C(=O)CSc1nc2ccccc2[nH]1)C1CCS(=O)(=O)C1 (stereo not given)	nt	?	i	54.4	i	i	i
COc1ccc(/C=N/N=C2\SC(CC(=O)O)C(=O)N2c2ccccc2)cc1 (stereo not given)	i	i	nt	i	i	nt	nt
COc1ccc(/C=N\N=C2/SC(CC(=O)O)C(=O)N2c2ccc(O)cc2)cc1 (stereo not given)	nt	i	i	55.8	i	i	i
COc1cccc(-c2ccc3c(c2)O[C@H](CN(C)Cc2ccncc2)[C@H](C)CN([C@@H](C)CO)S3(=O)=O)c1	nt	nt	i	nt	nt	nt	nt
COc1cc(C(=O)NC2CCCCC2)ccc1OCc1ccc(Cl)cc1Cl	i	i	nt	106.0	i	i	i
COc1ccc(C(=O)NC2CCC(O)CC2)cc1S(=O)(=O)NCc1ccc(Cl)cc1 (stereo not given)	nt	i	i	80.0	i	i	i
COc1cc(C(=O)NCCC(C)C)ccc1OCc1ccc(Cl)cc1Cl	i	i	nt	i	i	nt	nt
COc1ccc(CN(C)C[C@H]2OCCCC[C@H](C)Oc3ccc(NS(=O)(=O)c4ccc(F)cc4)cc3C(=O)N([C@H](C)CO)C[C@@H]2C)cc1	nt	nt	i	nt	nt	nt	nt
O=C(C[C@H]1CC[C@H]2[C@@H](COC[C@@H](O)CN2C(=O)c2ccccc2)O1)NCc1ccc(-c2ccccc2)cc1	nt	nt	i	nt	nt	nt	nt
Nc1nc(NCCO)nc(NCc2ccccc2)c1[N+](=O)[O-]	i	i	i	i	i	nt	nt
Nc1nc(NCc2ccccc2)nc(NCCO)c1[N+](=O)[O-]	i	nt	i	56.4	i	i	i
CCCCNC(=S)N/N=C/c1ccc(OCC(=O)Nc2c(C)cc(C)cc2C)c(OC)c1	i	i	nt	102.9	i	i	i
SMILES	Rce1 inh	Pemphigus Ab inh	Yeast UUG start	Arrestin-AP2 inh	TbMetRS inhib	Arr-AP2 CP1	GST-FITC bead
COc1cc(/C=N/NC(=O)c2cccnc2)ccc1OCC(=O)Nc1ccc(C)cc1	i	i	nt	91.0	i	i	i
CCNC(=O)COc1ccc(/C=N/NC(=O)c2cccnc2)cc1OC	i	i	nt	i	i	nt	nt
C[C@@H]1CN([C@H](C)CO)C(=O)c2cc(NC(=O)Cc3ccccc3)ccc2O[C@@H](C)CCCCO[C@@H]1CN(C)C(=O)C1CCCCC1	nt	nt	i	nt	nt	nt	nt
O=C(C1CCCC1)N1[C@@H](CO)[C@@H]2c3ccccc3N(S(=O)(=O)c3ccccc3)C[C@@H]21	nt	nt	i	nt	nt	nt	nt
O=C(Nc1cnccn1)Nc1ccccc1F	i	i	i	i	i	i	i
Cc1c(Cl)cccc1NC(=O)Nc1cnccn1	i	i	i	i	i	i	i
